Target: T1, human 5-HT6R (Homo sapiens, UniProt P50406)
T1 construct: host or cells: CHO-K1
Test: 5-HT6R radioligand binding assay
Details: [3H]-LSD, CHO-K1 membranes; mean ± SD of two technical replicates

By UniProt entry, the sequences of proteins in these tests, tags left out.
UniProt P50406, whole entry: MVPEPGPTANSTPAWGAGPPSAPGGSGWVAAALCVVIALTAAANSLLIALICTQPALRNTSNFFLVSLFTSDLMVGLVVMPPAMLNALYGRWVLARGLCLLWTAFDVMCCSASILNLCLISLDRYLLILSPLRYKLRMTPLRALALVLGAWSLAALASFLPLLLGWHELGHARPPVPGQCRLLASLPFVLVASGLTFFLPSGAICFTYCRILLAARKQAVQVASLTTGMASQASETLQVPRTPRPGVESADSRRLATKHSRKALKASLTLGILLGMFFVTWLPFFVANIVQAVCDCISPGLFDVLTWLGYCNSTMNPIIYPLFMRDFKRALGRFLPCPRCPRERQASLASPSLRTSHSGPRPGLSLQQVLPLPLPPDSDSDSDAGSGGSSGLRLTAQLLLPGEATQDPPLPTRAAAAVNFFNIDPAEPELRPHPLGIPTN

Question: How did the Ki turn out when C#CCN1CCN(CCCOc2ccc3c(ccn3S(=O)(=O)c3ccc(C(=O)NNCCC)cc3)c2)CC1 [FRB56] was run?
Answer: The Ki was 30.7 ± 6.76 µM.

— publication PMC13073873 (International Journal of Molecular Sciences, 2026)
